EP4847514A1, “PYRIMIDINE POLYCYCLIC DERIVATIVE INHIBITOR, PREPARATION METHOD THEREFOR AND USE THEREOF” (dated 2026)

Assays:
AsPC-1 cells = experiment: Inhibition of proliferation of KRAS G12D mutant tumour cell line (CellTiter-Glo, about 72 h); conditions: read-out: AsPC-1 IC50
Protocol: (§1) 1. Experimental objective: The inhibition activity of the example compounds on the proliferation of 5 KRAS G12D mutant cell lines SNU-1, HPAF-II, Panc0403, AsPC-1 and GP2D was determined. 2. Experimental instruments: • 2.1 Instruments: Microplate reader (BioTek Synergy H1); Pipette (Eppendorf & Rainin). • 2.2 Reagents: HPAF-II, PANC0403, AsPC-1 and GP2D were purchased from COBIOER BIOSCIENCES CO., LTD; SNU-1 was purchased from the cell bank of Chinese Academy of Sciences, Cell Titer-Glo was purchased from Promega, with a catalogue number of G7573; RPMI 1640 was purchased from Gibco, with a catalogue number of 22400089; DMEM was purchased from Gibco, with a catalogue number of 11995065; FBS was purchased from Gibco, with a catalogue number of 10091148; PBS was purchased from Gibco, with a catalogue number of 10010023; trypsin was purchased from Gibco, with a catalogue number of 25200056; cell culture plates were purchased from Corning Company, with a catalogue number of 3610. 3. Experimental methods: When SNU-1, HPAF-II, Panc0403, AsPC-1 or GP2D cells were cultured to the appropriate confluence, the SNU-1, HPAF-II, Panc0403, AsPC-1 or GP2D cells were collected. The cells were adjusted to the appropriate cell density using complete culture medium, the cell suspension was plated onto a 96-well plate at 90 µL per well, and the plate was placed in the incubator at 37°C and 5% CO2 for adherent culture overnight. Solutions of the compound with different concentrations were formulated using DMSO and culture medium. A vehicle control was set up. The solutions of the compound were added to the 96-well plate at 10 µL per well, and the plate was placed in the incubator at 37°C and 5% CO2 for further culture for about 72 h. Then CellTiter-Glo solution was added, and the obtained mixture was shaken and mixed evenly, incubated in the dark for 10 min, and read with a BioTek Synergy H1 microplate reader. 4. Experimental data processing method: The inhibition rate was calculated using the luminescence signal values, and the concentrations along with the inhibition rates were subjected to non-linear regression curve fitting using Graphpad Prism software to obtain the IC50 values. 5. Experimental results: Table 1: Inhibition activity of the example compounds of the present invention on the proliferation of GP2D and AsPC-1 cells

GP2D cells = experiment: as above; conditions: read-out: GP2D IC50
Protocol: as §1

[1] = Pharmacokinetic determination in mice (plasma, LCMS/MS); conditions: Balb/c mice, male, PO 30 mg/kg
Source text: • 1. Study objective: Balb/c mice were used as test animals to study the pharmacokinetic behaviour of the compounds in mice (plasma) after oral administration. • 2. Experimental protocol • 2.1 Test drugs: The example compounds of the present invention, made in house. • 2.2 Experimental animals: Balb/c mice, male, purchased from Shanghai Jiesijie Experimental Animal Co., Ltd., animal production license number (SCXK (Shanghai) 2013-0006 N0.311620400001794). • 2.3 Drug formulation: Formulation of drug for oral administration: 10% Captisol in 50 mM citrate buffer pH 5.0
(§2) Formulation of 50 mM citric acid: 4.8 g of citric acid was weighed into a 1000 ml glass bottle, ultrapure water was added to 300 ml, and the mixture was magnetically stirred until it was completely dissolved, additional ultrapure water was then added to 500 ml to formulate 50 mM citric acid.
(§3) Formulation of a solution containing 50 mM citric acid (10% Captisol, PH = 5): 50 g of Captisol powder was weighed and added to a 1000 ml glass bottle, 300 ml of 50 mM citric acid was added, and the mixture was magnetically stirred until it was completely dissolved, then additional citric acid was added to 500 ml, and the PH was adjusted to 5 using 10 M NaOH.
The example compounds were weighed and added to a 4-mL glass bottle separately, 2.4 mL of the solution was added and the mixture was ultrasonicated for 10 min to obtain a colourless clear solution with a concentration of 3 mg/mL.
Formulation of drug for intravenous administration: 5% DMSO + 10% Solutol HS15 + 85% PBS
(§4) The example compounds were weighed, and 5% DMSO was added based on the total administration volume; the mixture was vortexed and ultrasonicated for 2 min to ensure complete dissolution; then, 10% Solutol HS15 was added, and the mixture was vortexed and ultrasonicated for 2 min to ensure complete dissolution; finally, 85% PBS was added, and the mixture was vortexed and ultrasonicated for 5 min, and filtered through a 0.22 um filter membrane to obtain a colourless and transparent clear solution with a concentration of 0.2 mg/mL.
2.4 Administration: 3 Balb/c mice, male, were fasted overnight and then respectively administered PO at a dose of 30 mg/kg and a volume of 10 mL/kg. 3 Balb/C mice, male; were administered intravenously (IV) at a dose of 1 mg/kg with an administration volume of 5 mL/kg.
2.5 Sample collection: 0.04 mL of blood was collected from the orbit before administration and at 0.25 h, 0.5 h, 1 h, 2 h, 4 h, 6 h, 8 h, and 24 h after administration and placed in an EDTA-2K test tube, and the test tube was centrifuged at 6000 rpm for 6 min at 4°C to separate the plasma, which was stored at -20°C; The animals were fed 4 h after administration.
3 Determination results: The final determination results obtained by applying the LCMS/MS method are shown in the table below: Table 2: Pharmacokinetic parameters of the compounds administered orally in mice

[2] = Pharmacokinetic determination in rats (plasma, LCMS/MS); conditions: SD rats, male, PO 30 mg/kg
Source text: • 1. Study objective: SD rats were used as test animals to study the pharmacokinetic behaviour of the example compounds in rats (plasma) after oral administration. • 2. Experimental protocol • 2.1 Test drugs: The example compounds of the present disclosure, made in house. • 2.2 Experimental animals: 3 SD rats/group, male, from Shanghai Jiesijie Laboratory Animal Co., Ltd., animal production license number (SCXK (Shanghai) 2013-0006 N0.311620400001794). • 2.3 Drug formulation: Formulation of drug for oral administration: 10% Captisol in 50 mM citrate buffer pH 5.0
as §2, §3
The example compounds were weighed and dissolved in the solution and the mixture was shaken well and ultrasonicated for 15 min to obtain a colourless clear solution with a concentration of 3 mg/mL. Formulation of drug for intravenous administration: 5% DMSO + 10% Solutol HS15 + 85% PBS
as §4
2.4 Administration: 3 SD rats/group, male; were fasted overnight and then respectively administered PO at a dose of 30 mg/kg and a volume of 10 mL/kg. 3 SD rats/group, male; were administered intravenously (IV) at a dose of 1 mg/kg with an administration volume of 5 mL/kg.
2.5 Sample collection: 0.2 mL of blood was collected from the jugular vein before administration and at 0.25 h, 0.5 h, 1.0 h, 2.0 h, 4.0 h, 6.0 h, 8.0 h, and 24.0 h after administration and placed in an EDTA-2K test tube, and the test tube was centrifuged at 6000 rpm for 6 min at 4°C to separate the plasma, which was stored at -20°C. The animals were fed 4 h after administration. […]

[3] = tested on: human pancreatic cancer cell line (HPAC); experiment: Anti-tumour efficacy in mouse transplanted tumour model of human pancreatic cancer cell line (HPAC); conditions: BALB/c nude mice, 100 mpk PO BID; for Tumour volume (Mean ± SD) Day 0: Day 0 (baseline)
Source text: 1. Experimental objective: 8-10 week old female conventional immunodeficient mice (BALB/c nude) with a body weight of 18 g-22 g were used as experimental animals, and a transplanted tumour model of human pancreatic cancer cell line (HPAC) was used to conduct in vivo efficacy experiments to test the anti-tumour results of the example compounds after gavage administration. 2. Experimental instruments and reagents: • 2.1 Instruments: Ultra-clean workbench (BSC-1300II A2, Shanghai Boxun Industrial Co., Ltd. Medical Equipment Factory); CO2 incubator (Thermo-311, Thermo); centrifuge (Centrifuge 5720R, Eppendorf); automated cell counter (Countess II, Life Technologies); Pipette (10-20 µL, Eppendorf); Microscope (Ts 2, Nikon); vernier calliper (CD-6"AX, Mitutoyo, Japan); cell culture flask (T25/T75/T225, Corning); Thermostat water tank (HWS12, Shanghai Yiheng Science). • 2.2 Reagents: DMEM/F12 (11330-032, Gibco); foetal bovine serum (FBS) (10091-148, Gibco); Insulin (51500-056, Gibco); EGF (PHG0311, Gibco); 0.25% trypsin (25200-056, Gibco); phosphate buffer solution (PBS) (10010-023, Gibco); Matrigel (356234, Corning); Gln (25030-081, Gibco). 3. Experimental methods • 3.1 Experimental compounds: The example compounds of the present disclosure, made in house. • 3.2 Compound formulation: A given amount of the example compound was weighed, and an appropriate amount of 10% vehicle (Solutol HS15) was added. The mixture was stirred on a magnetic stirrer for 0.5 h to formulate a homogeneous suspension at the desired concentration. • 3.3 Cell culture and passaging: Human pancreatic cancer cell line (HPAC) was obtained from COBIOER BIOSCIENCES CO., LTD, cultured on DMEM/F12 medium (Gibco, 11330-032) supplemented with 10% foetal calf serum (Gibco, 10091-148), 1×Insulin (51500-056, Gibco) and 10 ng/ml of EGF (PHG0311, Gibco) and observed under a microscope (Thermo Fisher, 311). The cells were routinely passaged when the cells reached 80%-90% confluence in the culture flask. The passaged cells were cultured in a 37°C, 5% CO2 incubator (Thermo Fisher, 311). • 3.4 Cell seeding, grouping and administration: Under aseptic conditions, human pancreatic cancer cells (HPAC) in the logarithmic growth phase were harvested using 0.25% trypsin-EDTA (Gibco, 25200-056), washed and resuspended with phosphate buffer. The cell suspension was mixed with Matrigel (Coming, 356234) at a 1:1 ratio and implanted subcutaneously into the right anterior dorsal region of immunodeficient mice (BALB/c nude). Each mouse was inoculated with 3*10^6 cells in a volume of 100 microliters (µL). After inoculation, when the tumour volume reached 100-200 mm^3, the mice were evenly randomized into 5 groups based on the tumour size, with 5 mice per group, for in vivo efficacy experiments. The negative control group was the vehicle group. Mode of administration: The example compounds were administered orally. The dosage and administration period are as shown in the table. • 3.5 Tumour measurement and tumour inhibition rate calculation: Twice a week, the long and short diameters of the tumour were measured using a vernier calliper, and the tumour volume (mm^3) was calculated using the formula: V = 0.5*D*d*d, in which D and d are the long and short diameters of the tumour, respectively. The anti-tumour efficacy was determined by dividing the average increase in tumour volume of compound-treated animals by the average increase in tumour volume of untreated animals. The calculation formulas for tumour inhibition rate: when there is no tumour regression, TGI(%) = 100-[(Vt-V0) administration group/(Vt-V0) vehicle control group]*100%; and when tumour regression occurs, TGI(%)=[1-(Vt-V0) administration group/V0 vehicle control group]*100%. All animals were euthanized after the experiment. 4. Experimental results and conclusions Table 4: Efficacy parameters of the compounds in mice with transplanted tumours

IC50 (AsPC-1 cells) [nM] | IC50 (GP2D cells) [nM] | AUC0-∞ [1] [ng·h/mL] | Cmax [1] [ng/mL] | T1/2 [1] [h] | Tmax [1] [h] | AUC0-∞ [2] [ng·h/mL] | Cmax [2] [ng/mL] | T1/2 [2] [h] | Tmax [2] [h] | SMILES | Tumour volume (Mean ± SD) Day 0 [3] [mm^3] | Tumour volume (Mean ± SD) Day 21 [3] [mm^3]
 | 0.94 |  |  |  |  |  |  |  |  | [2H]C([2H])([2H])[C@@H]1Oc2nc(-c3cc(O)cc4ccc(F)c(C#C)c34)c(F)c3nc(OCC4(CN5CCC(=C(F)F)CC5)CC4)nc(c23)N2C[C@H]3CC[C@H](N3)[C@@H]12 | 209 | 131
25 | 0.62 |  |  |  |  |  |  |  |  | [2H]C([2H])([2H])[C@@H]1Oc2nc(-c3cc(O)cc4ccc(F)c(C#C)c34)c(F)c3nc(OCC4(C[N+]5([O-])CCC(=C(F)F)CC5)CC4)nc(c23)N2C[C@H]3CC[C@H](N3)[C@@H]12 (some centres unmarked) | 208 | 308

The next lines start with the compound.

SMILES | IC50 (AsPC-1 cells) [nM] | IC50 (GP2D cells) [nM] | AUC0-∞ [1] [ng·h/mL] | Cmax [1] [ng/mL] | T1/2 [1] [h] | Tmax [1] [h] | AUC0-∞ [2] [ng·h/mL] | Cmax [2] [ng/mL] | T1/2 [2] [h] | Tmax [2] [h] | Tumour volume (Mean ± SD) Day 0 [3] [mm^3] | Tumour volume (Mean ± SD) Day 21 [3] [mm^3]
C#Cc1c(F)ccc2cc(O)cc(-c3nc4c5c(nc(OCC6(C[N+]7([O-])CCC(=C(F)F)CC7)CC6)nc5c3F)N3C[C@H]5CC[C@H](N5)[C@H]3[C@H](C)O4)c12 (some centres unmarked) | 35 | 0.71 | 1179 | 236 | 8.3 | 2.0 | 3159 | 409 | 6.5 | 4.0 |  | 
C#Cc1c(F)ccc2cc(O)cc(-c3nc4c5c(nc(OCC6(CN7CCC(=C(F)F)CC7)CC6)nc5c3F)N3C[C@H]5CC[C@@H]([C@H]3[C@H](C)O4)N5O)c12 |  |  | 1077 | 270 | 1.0 | 2.0 |  |  |  |  |  | 
C#Cc1c(F)ccc2cc(O)cc(-c3nc4c5c(nc(OCC6(CN7CCC(=CF)CC7)CC6)nc5c3F)N3C[C@H]5CC[C@H](N5)[C@H]3[C@H](C)O4)c12 |  |  |  |  |  |  |  |  |  |  | 209 | 231
